Each structure is given as a SMILES string. This is a selection; strong and weak results do not stand in their true shares. Calls of active or inactive are those of the source.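 Rule for the calls: active = fluorescence ratio B-score, a plate-corrected score, at least three library SD, with initial intensity B-score within 5 SD; inactive = the rest.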

By UniProt entry, the sequences of proteins in these tests, tags left out.
UniProt P51787, whole entry: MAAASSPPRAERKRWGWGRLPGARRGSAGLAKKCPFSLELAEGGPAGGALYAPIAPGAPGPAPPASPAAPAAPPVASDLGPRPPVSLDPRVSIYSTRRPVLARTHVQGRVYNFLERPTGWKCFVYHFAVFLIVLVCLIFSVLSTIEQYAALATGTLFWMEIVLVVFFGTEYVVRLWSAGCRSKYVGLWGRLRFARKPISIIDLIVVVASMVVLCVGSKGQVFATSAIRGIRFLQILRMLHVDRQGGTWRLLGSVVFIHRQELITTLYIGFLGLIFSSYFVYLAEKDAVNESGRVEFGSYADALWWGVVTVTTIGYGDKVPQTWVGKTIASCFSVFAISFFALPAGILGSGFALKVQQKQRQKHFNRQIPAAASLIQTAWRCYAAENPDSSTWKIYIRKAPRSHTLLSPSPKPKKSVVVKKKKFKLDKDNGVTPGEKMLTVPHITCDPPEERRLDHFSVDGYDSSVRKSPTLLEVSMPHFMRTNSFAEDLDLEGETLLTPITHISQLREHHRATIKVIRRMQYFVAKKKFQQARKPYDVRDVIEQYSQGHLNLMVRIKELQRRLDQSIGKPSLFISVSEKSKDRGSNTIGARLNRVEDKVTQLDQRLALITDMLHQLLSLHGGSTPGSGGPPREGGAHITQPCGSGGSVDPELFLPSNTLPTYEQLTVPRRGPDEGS

This assay has as its target Potassium voltage-gated channel subfamily KQT member 1 (Homo sapiens) (UniProt P51787). Put plainly: potentiators or activators of KCNQ1 channel, primary screen, cell-based, thallium flux, high-throughput (AID 2648). The settings on record: CHO-K1 KCNQ1, thallium flux FluxOR fluorescence; at 10 µM.
As for `CS(=O)(=O)c1cc([N+](=O)[O-])c2no[n+]([O-])c2c1`, the outcome was inactive.
Regarding `O=P(Nc1nccs1)(c1ccccc1)c1nc2ccccc2s1` (stereo not given), the result was inactive.
For `O=P(Nc1nccs1)(Oc1ccccc1)Oc1ccccc1` the value was “inactive”; for `CCOP1(=S)c2c(C)nn(CCC#N)c2N=C(c2ccccc2F)N1C` (stereo not given), “inactive”.
With `O=C(O)c1cccc(Nc2c([N+](=O)[O-])cc([N+](=O)[O-])cc2[N+](=O)[O-])c1`, the result was inactive.
With `Nc1ccccc1[As](=O)(O)c1ccccc1` the entry was “inactive”; with `O=C(O)COc1ccc([As](=O)(O)O)cc1[N+](=O)[O-]`, “inactive”; with `NC(=O)Nc1ccc([As](=O)(O)O)cc1`, “inactive”.
Consider `CN(C(=O)Cc1ccc(Cl)c(Cl)c1)[C@H]1CC[C@@]2(CCCO2)C[C@@H]1N1CCCC1`, for which the outcome was inactive.
As for `CC1=NCCc2c1[nH]c1ccccc21.O=[N+]([O-])c1cc([N+](=O)[O-])c(O)c([N+](=O)[O-])c1`, the result was inactive.
For `CN(C)C(=O)c1cc([N+](=O)[O-])cc2c1-c1c(cc([N+](=O)[O-])cc1[N+](=O)[O-])C2=O` the value was “inactive”; for `O=[N+]([O-])c1ccc2c(c1)nnn2O`, “inactive”.
As to `CCOP1(=S)c2c(C)nn(CCC#N)c2N=C(c2ccc(F)cc2)N1C` (stereo not given), the outcome was inactive.
With `CN(C(=O)Cc1ccccc1)[C@@H]1CC[C@]2(CCCO2)C[C@H]1N1CCCC1` the entry was “inactive”; with `N#CCCN(C(=O)COC(=O)C(O)(c1ccccc1)c1ccccc1)c1ccc(F)cc1`, “inactive”; with `CS(=O)(=O)c1ccc(Cl)c(NC(=O)COC(=O)C(O)(c2ccccc2)c2ccccc2)c1`, “inactive”.
`COc1ccccc1OP(C)(=O)Nc1cccc(Br)c1` (stereo not given): the result was inactive.
As for `COc1cc(C(=O)NCC2(N3CCOCC3)CCCCC2)cc(Cl)c1OC(C)C`, the outcome was inactive.
As to `O=[As](O)(O)c1cccnc1`, the result was inactive.
With `O=C(OC1CN2CCC1CC2)c1ccc(Cl)cc1` (stereo not given) the entry was “inactive”; with `CCOC(=O)c1ccc(NP(C)(=O)Oc2cc(C)cc(C)c2)cc1` (stereo not given), “inactive”.
In the case of `Cc1cc(C)cc(OP(C)(=O)Nc2ccc(C)cc2C)c1` (stereo not given), the result was inactive.
In the case of `O=[As](O)(c1cccc(O)c1)c1cccc(O)c1`, the outcome was inactive.
In the case of `Cc1cccc(OCC(=O)OC2CN3CCC2CC3)c1` (stereo not given), the result was inactive.
On to `CCCOP(=S)(Nc1nc(N)cc(=O)[nH]1)OCCC`, for which the result was inactive.
With `Cc1ccc(C)c(NP(C)(=O)Oc2ccccc2)c1` (stereo not given) the entry was “inactive”; with `Nc1cccc2c([As](=O)(O)O)cccc12`, “inactive”; with `Cc1ccc(NCCc2c([N+](=O)[O-])cc([N+](=O)[O-])cc2[N+](=O)[O-])cc1`, “inactive”.
With `CP(=O)(Nc1cccc(Br)c1)Oc1ccccc1` (stereo not given) the entry was “inactive”; with `Cc1cc(C)cc(OP(C)(=O)Nc2ccccn2)c1` (stereo not given), “inactive”; with `CCOP(=O)(Nc1cccc2ccccc12)OCC`, “inactive”.
`CN(CCCl)Cc1cc(Cl)c(NC2=NCCN2)c(Cl)c1`: the result was inactive.
In the case of `CCOP(=O)(Nc1ccc(C)cn1)OCC`, the result was inactive.
In the case of `CCOP(=O)(NC(=NC(C)c1ccccc1)NC(C)c1ccccc1)OCC` (stereo not given), the outcome was inactive.
For `O=[N+]([O-])c1cc([N+](=O)[O-])c(-n2nnc3ccccc32)c([N+](=O)[O-])c1` the value was “inactive”; for `O=P1(Nc2ccccn2)COc2ccccc2OC1`, “inactive”.
Take `CCC1=CC2Cc3nc4ccc(Cl)cc4c(N)c3C(C1)C2` (stereo not given): the result was inactive.
On to `CC(C)(C)C(=O)NC(Sc1ncccn1)C(Cl)(Cl)Cl` (stereo not given), for which the result was inactive.
With `Clc1n[nH]nc1-c1nn[nH][15n]1`, the result was inactive.
Take `COc1ccccc1CNC(=O)COC(=O)C(O)(c1ccccc1)c1ccccc1`: the result was inactive.
For `O=[N+]([O-])c1cc([N+](=O)[O-])c(-c2cnn(-c3ccccc3)c2)c([N+](=O)[O-])c1` the value was “inactive”; for `CC1(CBr)Cn2c(nc3ccccc3c2=O)S1` (stereo not given), “inactive”; for `O=[As](O)(c1ccccc1Br)c1ccccc1Br`, “inactive”.
With `CC(C)/C=N\N=C(\N)N[N+](=O)[O-]` the entry was “inactive”; with `CN(C(=O)Cc1ccc(Cl)c(Cl)c1)[C@@H]1CCCC[C@H]1N1CCCC1`, “inactive”.
Regarding `COc1cc(C2NCCC3(OCCO3)C2(C)C)cc(OC)c1OC.O=[N+]([O-])c1cc([N+](=O)[O-])c(O)c([N+](=O)[O-])c1` (stereo not given), the outcome was inactive.
As for `CC1CCC(C(C)C)C(OP(=O)(Nc2ccccn2)c2ccccc2)C1` (stereo not given), the outcome was inactive.
On to `Cc1ccc(C(=O)OC2CN3CCC2CC3)cc1` (stereo not given), for which the outcome was inactive.
For `Cc1nn(-c2ccccc2)c2c1P(=O)(N1CCOCC1)N(C)C(c1ccccc1)=N2` (stereo not given), the result was inactive.
With `O=C(/C=C/c1ccccc1)OC1CN2CCC1CC2` (stereo not given) the entry was “inactive”.
Turning to `CCOC(=O)C(CC)C1=NC(C)(C)Cc2ccccc21.O=[N+]([O-])c1cc([N+](=O)[O-])c(O)c([N+](=O)[O-])c1` (stereo not given), the result was inactive.
For `O=[N+]([O-])c1cc([N+](=O)[O-])c(Nc2nnnn2CCO)c([N+](=O)[O-])c1` the value was “inactive”.
For `CN(C)C1(CNC(=O)c2ccc(S(C)(=O)=O)cc2)CCCCC1` the value was “inactive”.
With `O=P1(Nc2ncccn2)COc2ccccc2OC1` the entry was “inactive”; with `COc1ccccc1OP(C)(=O)Nc1c(C)cccc1C` (stereo not given), “inactive”.
Take `CN1CCCCC1COC(=O)C1(O)c2ccccc2CCc2ccccc21` (stereo not given): the result was inactive.
For `O=P1(Nc2ccc(Br)cn2)COc2ccccc2OC1` the value was “inactive”; for `O=[As](O)(c1cccs1)c1cccs1`, “inactive”; for `Cc1ccc(OCC(=O)OC2CN3CCC2CC3)cc1` (stereo not given), “inactive”.
Regarding `CP(=O)(Nc1ccc(SC(F)(F)F)cc1)Oc1ccccc1` (stereo not given), the result was inactive.
With `Nc1cccc([As](=O)(O)c2ccccc2)c1`, the outcome was inactive.
Regarding `CCCOc1ccc(NP(C)(=O)Oc2ccc(Cl)cc2)cc1` (stereo not given), the result was inactive.
Consider `CCOC(=O)Nc1ccc([As](=O)(O)O)c(O)c1`, for which the result was inactive.
For `Cc1cc(SC(NC(=O)c2ccccc2)C(Cl)(Cl)Cl)nc(C(C)C)n1` (stereo not given) the value was “inactive”; for `CCCCOc1ccc(C(=O)NCC2(N3CCCCC3)CCCCC2)cc1OC`, “inactive”.
For `CCOC(=O)Nc1cccc([As](=O)(O)O)c1` the value was “inactive”.
Regarding `CP(=S)(Nn1cnnc1)Oc1ccccc1` (stereo not given), the result was inactive.
As for `O=[N+]([O-])c1ccc(Nc2ccc(Oc3ccc([N+](=O)[O-])cc3[N+](=O)[O-])cc2)c([N+](=O)[O-])c1`, the outcome was inactive.
With `CP(=O)(Nc1ccccc1Br)Oc1ccccc1` (stereo not given) the entry was “inactive”; with `COc1ccccc1OP(C)(=O)Nc1ccccc1` (stereo not given), “inactive”; with `O=P(Nc1ccccn1)(c1cccc2ccccc12)c1cccc2ccccc12`, “inactive”.
For `Cc1cc(SC(NC=O)C(Cl)(Cl)Cl)ncn1` (stereo not given) the value was “inactive”.
With `CP(=O)(Oc1ccccc1)OC(c1ccccc1)C(F)(F)F` (stereo not given), the outcome was inactive.
With `Cc1cccc(C)c1OP(C)(=O)Nc1ccc(SC(F)(F)F)cc1` (stereo not given) the entry was “inactive”; with `CP(=O)(Nc1ccc(SC(F)(F)F)cc1)Oc1ccc(Cl)cc1` (stereo not given), “inactive”; with `COP1(=S)c2c(C)nn(CCC#N)c2N=C(c2ccc(F)cc2)N1C` (stereo not given), “inactive”.
For the compound `Cc1cc(C)cc(OP(C)(=O)Nc2ccc(SC(F)(F)F)cc2)c1` (stereo not given), the result was inactive.
`O=C(Nc1ccncc1[N+](=O)[O-])c1ccc([N+](=O)[O-])cc1[N+](=O)[O-]`: the result was inactive.
`CCc1ccc(OP(C)(=O)N2CCN(c3ccc([N+](=O)[O-])cc3)CC2)cc1` (stereo not given): the outcome was inactive.
For `O=C(COc1ccccc1)OC1CN2CCC1CC2` (stereo not given) the value was “inactive”.
As to `CP(=O)(NC(=O)Nc1ccccc1)Oc1ccccc1` (stereo not given), the outcome was inactive.
With `CCOC(=O)c1ccc(NC(=O)C(C)(CCl)SC)cc1` (stereo not given) the entry was “inactive”.
With `CCOC(=O)c1ccc(NP(C)(=O)Oc2ccc(OC)cc2)cc1` (stereo not given) the entry was “inactive”; with `O=[N+]([O-])c1cc([N+](=O)[O-])c(O)c([N+](=O)[O-])c1.c1ccc(Oc2ccncc2)cc1`, “inactive”.
For `O=C(OC1CN2CCC1CC2)c1cccc([N+](=O)[O-])c1` (stereo not given) the value was “inactive”; for `CCOP(C)(=S)SCC(=O)NC(C)C(=O)O` (stereo not given), “inactive”; for `CP(=O)(Nc1ccccn1)Oc1ccc(Cl)cc1` (stereo not given), “inactive”.
In the case of `CCC(C)N(CC(C)C)C(=S)SC(NC(C)=O)C(Cl)(Cl)Cl` (stereo not given), the result was inactive.
For the compound `CCN(CC)CCCOC(=O)C(O)(c1ccccc1)c1ccccc1`, the result was inactive.
For the compound `Cc1cc(=O)[nH]c(N[N+](=O)[O-])n1`, the result was inactive.
With `O=C(OC1CN2CCC1CC2)C12CC3CC(CC(C3)C1)C2` (stereo not given) the entry was “inactive”; with `Cc1c2c(nc3ccccc13)SC(C(Cl)Cl)C2` (stereo not given), “inactive”; with `COc1cc(I)ccc1[As](=O)(O)O`, “inactive”.
Regarding `COc1ccc2nc(NP(=O)(c3ccccc3)c3ccccc3)sc2c1`, the result was inactive.
With `COc1ccc(N/C(=N/P(=O)(N2CCOCC2)N2CCOCC2)N2CCOCC2)cc1`, the outcome was inactive.
`O=[As](O)(c1ccc(O)cc1)c1ccccc1O`: the outcome was inactive.
For `C[As](=O)(O)c1cccc(C(=O)O)c1`, the outcome was inactive.
With `O=[N+]([O-])c1cc([N+](=O)[O-])c(Nc2cccnc2)c([N+](=O)[O-])c1` the entry was “inactive”.
Regarding `Cc1ccc2nc3c(c(C)c2c1)CC(C(Cl)Cl)S3` (stereo not given), the result was inactive.
With `O=[N+]([O-])c1ccc2c(c1)C=Nc1ccccc1O2` the entry was “inactive”; with `Cc1cccc(C)c1OP(C)(N)=O` (stereo not given), “inactive”; with `CC(C)(C)c1ccc(OP(C)(=O)Nc2ccc(SC(F)(F)F)cc2)cc1` (stereo not given), “inactive”.
Turning to `Cc1ccc(OP(=O)(Nc2ccc([N+](=O)[O-])cn2)Oc2ccc(C)cc2)cc1`, the result was inactive.
On to `CC(C)c1ccc(OP(=O)(Nc2ccccn2)Oc2ccccc2F)cc1` (stereo not given), for which the result was inactive.
With `Cc1ccc(NP(C)(=O)Oc2ccccc2)c(C)c1` (stereo not given) the entry was “inactive”; with `COc1ccccc1OP(C)(=O)Nc1ccc(C)cc1` (stereo not given), “inactive”; with `ClCCSc1nnc(-c2cccnc2)o1`, “inactive”.
On to `CCOC(=O)c1ccc(NP(C)(=O)Oc2ccccc2)cc1` (stereo not given), for which the outcome was inactive.
With `Cc1cc(C)cc(OP(C)(N)=O)c1` (stereo not given) the entry was “inactive”; with `O=[N+]([O-])c1cc([N+](=O)[O-])c(-c2ccn[nH]2)s1`, “inactive”.
For `COc1ccc(OP(C)(=O)Nc2cccc(F)c2)cc1` (stereo not given) the value was “inactive”; for `CCN(CC)C(=S)SC(NC=O)C(Cl)(Cl)Cl` (stereo not given), “inactive”; for `COc1ccccc1OP(C)(=O)Nc1cc(Cl)ccc1C` (stereo not given), “inactive”.
With `CC(C)NC(=O)NP(=O)(Oc1ccccc1)Oc1ccccc1` the entry was “inactive”.
`O=C(O)c1ccccc1[As](=O)(O)O`: the result was inactive.

(Values after PubChem BioAssay AID2648 (Johns Hopkins Ion Channel Center, 2010).)
